The compounds below were run against prostanoid EP3 receptors (Homo sapiens, UniProt P43115) (assay: binding on prostanoid EP3 receptors (method of Abramovitz et al.)). Conditions: read-out: Activity (EP3 receptor binding, IC50 class).

By UniProt entry, the sequences of proteins in these tests, tags left out.
UniProt P43115, whole entry: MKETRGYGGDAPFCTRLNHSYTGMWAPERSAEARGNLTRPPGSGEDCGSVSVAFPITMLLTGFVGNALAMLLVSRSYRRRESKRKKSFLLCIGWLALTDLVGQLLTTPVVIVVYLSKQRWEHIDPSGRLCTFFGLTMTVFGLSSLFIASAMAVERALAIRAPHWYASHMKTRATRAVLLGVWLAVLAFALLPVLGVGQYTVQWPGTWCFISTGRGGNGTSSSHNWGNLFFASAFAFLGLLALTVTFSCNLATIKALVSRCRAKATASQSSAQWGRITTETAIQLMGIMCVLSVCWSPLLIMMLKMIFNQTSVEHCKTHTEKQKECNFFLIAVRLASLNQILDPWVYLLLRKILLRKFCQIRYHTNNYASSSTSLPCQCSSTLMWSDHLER

| Compound | IC50 [nM] |
| --- | --- |
| CN1C(=O)c2[nH]nc(Cc3ccc(Cl)cc3Cl)c2C1CCC(=O)NS(=O)(=O)c1cc(Cl)c(Cl)s1 (centres unmarked) | 1000 to 10000 |
| O=C(COc1cccc2c1N(Cc1cccc(OC(F)(F)F)c1)C(=O)CO2)NS(=O)(=O)c1cccs1 | 1000 to 10000 |
| CN1C(=O)C(=Nc2ccc(Cl)cc2Cl)c2c(/C=C/C(=O)NS(=O)(=O)c3cc(Cl)c(Cl)s3)cccc21 | < 1000 |
| O=C(/C=C/c1cccc2c1N(Cc1ccc(Cl)cc1Cl)C(=O)C21OCCO1)NS(=O)(=O)c1cc(Cl)c(Cl)s1 | < 1000 |
| O=C(/C=C/c1cccc2c1N(Cc1ccc(Cl)cc1Cl)C(=O)C2)NS(=O)(=O)c1cccs1 | < 1000 |
| O=C(/C=C/c1cccc2c1C(Nc1ccc(F)c(F)c1)C(=O)N2)NS(=O)(=O)c1cc(Cl)c(Cl)s1 (centres unmarked) | < 1000 |
| [2H]C([2H])([2H])c1cn(C([2H])([2H])c2ccc(Cl)cc2Cl)c2c(/C=C/C(=O)NS(=O)(=O)c3cc(Cl)c(Cl)s3)cc(F)cc12 | < 1000 |
| CC(C)c1cn(Cc2ccc(Cl)cc2Cl)c2c(CCC(=O)NS(=O)(=O)c3cc(Cl)c(Cl)s3)cccc12 | < 1000 |
| CN1C(=O)c2[nH]nc(Cc3ccc(Cl)cc3Cl)c2C1/C=C/C(=O)NS(=O)(=O)c1cc(Cl)c(Cl)s1 (centres unmarked) | 1000 to 10000 |
| COc1cccc(CN2C(=O)CC3(C)CCCC(CCC(=O)NS(=O)(=O)c4cc(F)c(F)cc4F)=C23)c1 (centres unmarked) | < 1000 |
| O=C(COc1cccc2c1N(Cc1cccc(C(F)(F)F)c1)C(=O)CO2)NS(=O)(=O)c1cccs1 | 1000 to 10000 |
| CC12CCCC(CCC(=O)NS(=O)(=O)c3cc(F)c(F)cc3F)=C1N(Cc1ccc(F)c(F)c1)C(=O)C2 (centres unmarked) | < 1000 |
| O=C(CCc1cccc2c1C(Cc1ccc3ccccc3c1)C(=O)N2)NS(=O)(=O)c1cc(Cl)c(Cl)s1 (centres unmarked) | < 1000 |
| Cc1cn(Cc2ccc(Cl)cc2Cl)c2c(C(=O)C(=O)NS(=O)(=O)c3cc(F)c(F)cc3F)cc(F)cc12 | 1000 to 10000 |

Further lines, results first:

| IC50 [nM] | Compound |
| --- | --- |
| < 1000 | CCn1c(Sc2coc3cccc(OCC(=O)NS(=O)(=O)c4cc(Cl)c(Cl)s4)c23)nc2ccccc21 |
| < 1000 | O=C(COc1cccc2occ([S+]([O-])c3ccc4ccccc4c3)c12)NS(=O)(=O)c1cc(Cl)c(Cl)s1 (centres unmarked) |
| < 1000 | CN1C(=O)C(NC(=O)c2ccc3ccccc3c2)c2c(OCC(=O)NS(=O)(=O)c3cc(Cl)c(Cl)s3)cccc21 (centres unmarked) |
| < 1000 | O=C(COc1cccc2occ(Sc3ccc4ccccc4c3)c12)NS(=O)(=O)c1cc(Cl)c(Cl)s1 |
| < 1000 | CC12CCCC(/C=C/C(=O)NS(=O)(=O)c3cc(F)c(F)cc3F)=C1N(Cc1ccc(F)c(F)c1)C(=O)C2 (centres unmarked) |
| < 1000 | CC(Oc1cccc2[nH]cc(Cc3ccc4ccccc4c3)c12)C(=O)NS(=O)(=O)c1cc(Cl)c(Cl)s1 (centres unmarked) |
| < 1000 | Cc1cn(Cc2ccc(Cl)cc2Cl)c2c(/C=C/C(=O)NS(=O)(=O)c3cccs3)cc(F)cc12 |
| < 1000 | Cn1cc(/C=C/C(=O)NS(=O)(=O)c2cc(F)c(F)cc2F)c2c(Oc3ccc(Cl)cc3Cl)cccc21 |
| < 1000 | CC(C)(Oc1cccc2[nH]cc(Cc3ccc4ccccc4c3)c12)C(=O)NS(=O)(=O)c1cc(Cl)c(Cl)s1 |
| < 1000 | CN1C(=O)C(Nc2ccc(F)cc2F)c2c(C=CC(=O)NS(=O)(=O)c3cc(Cl)c(Cl)s3)cccc21 (centres unmarked) |
| < 1000 | Cc1cn(Cc2ccc(Cl)cc2Cl)c2c(C(=O)NS(=O)(=O)c3cc(Cl)c(Cl)s3)cc(F)cc12 |
| < 1000 | O=C(/C=C/c1cccc2c1N(Cc1ccc(Cl)cc1Cl)C(=O)C2(F)F)NS(=O)(=O)c1cc(Cl)c(Cl)s1 |
